## Ab-95 light chain CDR variants: yeast mating affinities

All variants were tested on one target, the spike HR2 peptide PDVDLGDISGINAS (SARS-CoV-2).

Ab-95 is the parent antibody, in scFv form: VH, then the linker GGGGSGGGGSGGGGS, then VL. The heavy chain is unchanged in all variants.
VH: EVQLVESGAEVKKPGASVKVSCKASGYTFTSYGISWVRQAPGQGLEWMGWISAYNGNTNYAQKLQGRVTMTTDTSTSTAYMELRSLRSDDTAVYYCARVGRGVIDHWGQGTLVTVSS
VL: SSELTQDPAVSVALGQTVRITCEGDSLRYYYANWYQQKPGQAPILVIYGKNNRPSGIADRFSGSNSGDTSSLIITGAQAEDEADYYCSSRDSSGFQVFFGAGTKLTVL

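The starting antibody came from a phage panning campaign against this peptide. AAYL52 was designed without a model: most single CDR substitutions and a random sample of double and triple ones. AlphaSeq pools MATa yeast showing the antibodies with MATalpha yeast showing the peptide. The frequency of each diploid, read from paired DNA barcodes, reflects how well the two displayed proteins bind. Each replicate has its own calibration line, from reference interactions of the BCL2 family. The assay was run in three technical replicates.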

Each variant's VL is given in full. Values are log10 of the apparent Kd in nM; lower means stronger binding. A pair that was not seen in that replicate is written "n.d."; this usually means weak binding, but a binder can also be missed. Background: pairings of library AAYL52 with three empty control strains gave a value in 28% of cases (median 3.91, 5th percentile 2.90). Values in that range, when seen in few replicates, are hard to tell from nonspecific mating. The control count says in how many pairings with the empty strains this scFv gave a signal, with their mean in brackets. For reference, the parent read 2.31 as the reference entry and 2.25 as a member of this library.

VL | replicates, log10 nM | control signals
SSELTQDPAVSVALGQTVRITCEGDSLRRYYANWYQQKPGQAPILVIYGKNNRPSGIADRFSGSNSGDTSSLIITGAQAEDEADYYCSSEISSGFQVFFGAGTKLTVL | 2.86 / 3.23 / 2.71 | 1/9 (3.20)
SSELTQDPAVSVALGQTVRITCEGDSLRYYCANWYQQKPGQAPILVIYGKNNRFPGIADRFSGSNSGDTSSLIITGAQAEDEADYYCSSRDSSGFQVFFGAGTKLTVL | 4.76 / n.d. / 2.83 | 2/9 (3.68)
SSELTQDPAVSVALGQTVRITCEGDSLRYYYAYWYQQKPGQAPILVIYGKDNRPVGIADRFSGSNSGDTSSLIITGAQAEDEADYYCSSRDSSGFQVFFGAGTKLTVL | n.d. / 4.99 / n.d. | 2/9 (3.80)
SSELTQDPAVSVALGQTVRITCEGDSLRYYMANWYQQKPGQAPILVIYGKNQRSSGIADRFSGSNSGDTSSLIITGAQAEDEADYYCSSRDSSGFQVFFGAGTKLTVL | 1.89 / 1.72 / 1.62 | 2/9 (3.57)
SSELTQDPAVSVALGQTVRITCEGDSLRYYYANWYQQKPGQAPILVIYGKINRPAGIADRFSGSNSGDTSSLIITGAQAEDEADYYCSSRDSSGFHVFFGAGTKLTVL | 3.55 / 4.48 / 3.62 | 4/9 (4.66)
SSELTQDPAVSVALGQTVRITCEGDKLRYIYANWYQQKPGQAPILVIYGKNNRPSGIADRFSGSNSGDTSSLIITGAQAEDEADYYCSSRDSIGFQVFFGAGTKLTVL | n.d. / n.d. / n.d. | 2/9 (4.29)
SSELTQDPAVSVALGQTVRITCEGDSLGYYYAMWYQQKPGQAPILVIYGKNNRPSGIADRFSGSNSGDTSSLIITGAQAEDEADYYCSSRDSSGFQVHFGAGTKLTVL | 5.33 / 4.37 / 4.04 | 3/9 (3.89)
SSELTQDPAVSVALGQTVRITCEGDSLRYYYANWYQQKPGQAPILVIYNKNNCPIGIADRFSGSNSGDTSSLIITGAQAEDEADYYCSSRDSSGFQVFFGAGTKLTVL | 3.05 / 3.02 / 3.07 | 1/9 (3.68)
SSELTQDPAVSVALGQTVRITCEGDSLRKEYANWYQQKPGQAPILVIYGKNNRFSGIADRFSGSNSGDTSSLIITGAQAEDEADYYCSSRDSSGFQVFFGAGTKLTVL | 1.71 / 1.92 / 1.47 | 2/9 (4.89)
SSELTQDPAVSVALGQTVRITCKGDSLRRYYANWYQQKPGQAPILVIYGKNNRPSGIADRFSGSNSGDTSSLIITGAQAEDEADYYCSSRDSSGFYVFFGAGTKLTVL | 2.97 / 2.97 / 2.82 | 4/9 (3.72)
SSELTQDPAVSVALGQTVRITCEGHSLRYYYANWYQQKPGQAPILVIYGKQNRPSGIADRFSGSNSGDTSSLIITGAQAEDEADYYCSSRDSSQFQVFFGAGTKLTVL | n.d. / n.d. / 4.30 | 5/9 (4.39)
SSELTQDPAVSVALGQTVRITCEEDSLRYSYANWYQQKPGQAPILVIYGKNNRPSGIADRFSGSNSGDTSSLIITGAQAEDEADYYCSSRLSSGFQVFFGAGTKLTVL | n.d. / n.d. / n.d. | 2/9 (3.37)
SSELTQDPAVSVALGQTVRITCEGDSLRYYYANWYQQKPGQAPILVIYGKWNRPSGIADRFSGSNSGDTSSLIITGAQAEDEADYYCSSRDMSGGQVFFGAGTKLTVL | 4.37 / n.d. / n.d. | 3/9 (3.90)
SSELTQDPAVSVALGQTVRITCEGDTLRYCYANWYQQKPGQAPILVIYGKNNLPSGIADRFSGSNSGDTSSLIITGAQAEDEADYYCSSRDSSGFQVFFGAGTKLTVL | 3.44 / n.d. / n.d. | 1/9 (3.41)
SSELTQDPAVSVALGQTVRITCEGDSLRYYYANWYQQKPGQAPILVIYYKNNRPSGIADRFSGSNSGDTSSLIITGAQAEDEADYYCSGRDHSGFQVFFGAGTKLTVL | 3.66 / n.d. / n.d. | 1/9 (2.99)
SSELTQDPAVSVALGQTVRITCEGYSLRYYYANWYQQKPGQAPILVIYGKNNRPSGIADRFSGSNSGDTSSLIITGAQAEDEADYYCSSRDSSGFQHFFGAGTKLTVL | 2.85 / 2.29 / n.d. | 0/9
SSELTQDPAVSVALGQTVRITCEGDSLRYYYANWYQQKPGQAPILVIYGKNNRPSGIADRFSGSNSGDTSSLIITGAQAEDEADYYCSMRDSCGFQVFFGAGTKLTVL | 3.14 / 3.09 / 3.30 | 4/9 (3.75)
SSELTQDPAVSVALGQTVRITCEEDSLRYYYANWYQQKPGQAPILVIYGKNNRPSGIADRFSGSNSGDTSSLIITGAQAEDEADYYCSYQDSSGFQVFFGAGTKLTVL | n.d. / 3.77 / n.d. | 5/9 (3.91)

The opening 3 entries, copied out:

| VL | replicates, log10 nM | control signals |
|---|---|---|
| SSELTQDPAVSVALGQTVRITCEGDSLRRYYANWYQQKPGQAPILVIYGKNNRPSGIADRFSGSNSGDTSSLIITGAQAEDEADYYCSSEISSGFQVFFGAGTKLTVL | 2.86 / 3.23 / 2.71 | 1/9 (3.20) |
| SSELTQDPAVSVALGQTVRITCEGDSLRYYCANWYQQKPGQAPILVIYGKNNRFPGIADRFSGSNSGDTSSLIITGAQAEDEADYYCSSRDSSGFQVFFGAGTKLTVL | 4.76 / n.d. / 2.83 | 2/9 (3.68) |
| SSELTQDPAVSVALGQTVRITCEGDSLRYYYAYWYQQKPGQAPILVIYGKDNRPVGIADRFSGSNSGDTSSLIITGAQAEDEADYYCSSRDSSGFQVFFGAGTKLTVL | n.d. / 4.99 / n.d. | 2/9 (3.80) |

Values reported by Engelhart et al. 2022, doi:10.1038/s41597-022-01779-4 (FLAb copy).